Results taken from patent publication US4661502A (priority 1983, dated 1987).

Test system: Hypercholesterolemic Rats
Details: male Wistar rats fed 1% cholesterol and 0.5% cholic acid chow; i.p. three times at two-hour intervals (test compounds 1 and 2, 2 mg/kg×3; neostigmine bromide, 0.2 mg/kg×3); blood six hours after first administration; mean ± S.E., n = 5

| Structure (SMILES) | LDL-cholesterol [mg %] | Total cholesterol [mg %] |
| --- | --- | --- |
| CN(C)C(=O)Oc1ccc[n+](COC(=O)c2ccccc2)c1.[Cl-] | 56.3 ± 15.9 | 146.1 ± 27.0 |
| CN(C)C(=O)Oc1ccc[n+](COC(=O)C(C)(C)C)c1.[Cl-] | 49.1 ± 12.6 | 77.6 ± 6.7 |
